{
  "source": "patent US11390664B2",
  "about": "“Antibodies that potently neutralize hepatitis B virus and uses thereof” (priority 2015, dated 2022)",
  "system": "HBV (genotype D)",
  "assay": "Combination therapy in chronically HBV infected humanized uPA/SCID mice",
  "type": "in vivo",
  "conditions": "4 weeks treatment from week 8 post-infection; HBC34 1 mg/kg i.p. twice per week; lamivudine 0.4 mg/ml in drinking water",
  "data": [
    {"smiles": "Nc1ccn([C@@H]2CS[C@H](CO)O2)c(=O)n1", "note": "[lamivudine, reference compound]", "values": [
      {"measurement": "HBsAg drop (reduction)", "value": 0.2, "unit": "log"},
      {"measurement": "mean reduction of viremia", "value": 1.3, "unit": "log"}
    ]}
  ]
}
